Target: SHP2 full-length protein (Homo sapiens, UniProt Q06124)
Test: SHP2 allosteric inhibition experiment (Homogeneous Full Length SHP-2 Assay Kit)
Conditions: read-out: IC50 Values of Compounds Inhibiting SHP2; full-length SHP2 0.06 nM with SHP-2 activating peptide; ten-point, 1 μM to 0.05 nM
Description: The following further describes and explains the present invention in combination with test examples, but these examples are not meant to limit the scope of the present invention. SHP2 allosteric inhibition experiment
The purpose of this test is to measure the ability of the compounds to inhibit the allosteric activity of the SHP2 full-length protein. Experimental equipment: a centrifuge (5810R) is purchased from Eppendorf Company; pipettes are purchased from Eppendorf Company and Rainin Company, and microplate readers are purchased from BioTek Company of the United States, SynergyH1 multimode microplate reader.
Experimental method: Homogeneous Full Length SHP-2 Assay Kit (BPS Bioscience, #79330) is used to detect SHP2 activity in vitro. First, add 18 μL of Master Mix to 96-well low-adsorption microplate (NUNC, #267342), that is, 0.5 μL of SHP-2 activating Peptide and 5 mM DTT are included in the reaction buffer with a final concentration of 1×. […]
After incubation, add 25 μL of Substrate solution to each well, containing Substrate with a final concentration of 10 μM and DTT with a final concentration of 5 mM, and after centrifugation, continue to incubate at room temperature for 30 minutes. After the reaction, set the excitation wavelength at 340 nm, the emission wavelength at 455 nm, and the gain value to 75 on the Synergy H1 microplate reader (Biotek) for reading. […]

The chains behind the UniProt entries cited, without tags or fusion partners.
UniProt Q06124, whole entry: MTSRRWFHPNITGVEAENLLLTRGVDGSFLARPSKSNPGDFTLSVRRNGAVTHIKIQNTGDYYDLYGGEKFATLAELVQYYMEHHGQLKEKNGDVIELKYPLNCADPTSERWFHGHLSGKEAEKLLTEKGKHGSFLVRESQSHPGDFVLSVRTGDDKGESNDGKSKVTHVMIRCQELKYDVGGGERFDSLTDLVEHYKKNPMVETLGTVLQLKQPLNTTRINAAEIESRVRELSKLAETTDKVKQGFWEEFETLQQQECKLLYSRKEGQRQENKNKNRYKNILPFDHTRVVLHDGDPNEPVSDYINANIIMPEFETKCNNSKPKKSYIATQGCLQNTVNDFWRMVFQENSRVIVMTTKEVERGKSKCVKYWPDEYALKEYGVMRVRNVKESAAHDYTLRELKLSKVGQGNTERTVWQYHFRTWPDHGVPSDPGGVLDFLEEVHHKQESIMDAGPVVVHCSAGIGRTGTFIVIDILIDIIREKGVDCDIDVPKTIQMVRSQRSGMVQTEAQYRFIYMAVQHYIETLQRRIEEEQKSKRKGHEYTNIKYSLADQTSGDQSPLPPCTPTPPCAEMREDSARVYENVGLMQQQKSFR

Question: With `C[C@@H]1OCC2(CCN(c3cnc4c(=O)n(-c5cccc(Cl)c5Cl)c(=O)[nH]c4n3)CC2)[C@@H]1N` as the molecule, how does the IC50 read?
Answer: 0.01 to 0.1 µM

Source: US20240270759A1, “Preparation of SHP2 phosphatase inhibitors and its applications” (Ya Therapeutics Inc, priority 2021, published 2024)
